Assay results from ChEMBL document CHEMBL1124886, “Electrophilic alpha-methylene-gamma-lactone and isothiocyanate opioid ligands related to etorphine” (1990).

Protein sequences, listed by entry. Tags and fused reporters are not part of them.
UniProt P79350, whole entry: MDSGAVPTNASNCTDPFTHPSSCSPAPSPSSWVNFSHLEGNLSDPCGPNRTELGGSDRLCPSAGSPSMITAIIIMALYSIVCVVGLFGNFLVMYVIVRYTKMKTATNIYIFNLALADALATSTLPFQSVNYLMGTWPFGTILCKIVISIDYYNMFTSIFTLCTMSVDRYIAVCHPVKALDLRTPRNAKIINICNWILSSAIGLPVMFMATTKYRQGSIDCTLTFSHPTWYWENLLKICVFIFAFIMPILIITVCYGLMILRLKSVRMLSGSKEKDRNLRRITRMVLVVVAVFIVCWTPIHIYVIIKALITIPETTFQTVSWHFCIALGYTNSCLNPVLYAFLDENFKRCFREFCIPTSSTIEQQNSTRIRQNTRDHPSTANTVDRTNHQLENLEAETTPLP

Experiments:
[1] = molecular target: Mu-type opioid receptor (Bos taurus) (UniProt P79350); assay: % Recovery of 0.5 nM [3H]- bremazocine binding to Opioid receptor mu 1(unwashed)at a concentration of 5 nM
[2] = molecular target: Mu-type opioid receptor (Bos taurus) (UniProt P79350); assay: % Recovery of 0.5 nM [3H]- bremazocine binding to Opioid receptor mu 1(protected)at a concentration of 5 nM
[3] = molecular target: Mu-type opioid receptor (Bos taurus) (UniProt P79350); assay: % Recovery of 0.5 nM [3H]- bremazocine binding to Opioid receptor mu 1(washed)at a concentration of 6 nM
[4] = molecular target: Mu-type opioid receptor (Bos taurus) (UniProt P79350); assay: % Recovery of 0.5 nM [3H]- bremazocine binding to Opioid receptor mu 1(unwashed)at a concentration of 6 nM
[5] = molecular target: Mu-type opioid receptor (Bos taurus) (UniProt P79350); assay: % Recovery of 0.5 nM [3H]- bremazocine binding to Opioid receptor mu 1(protected)at a concentration of 6 nM
[6] = molecular target: Mu-type opioid receptor (Bos taurus) (UniProt P79350); assay: % Recovery of 0.5 nM [3H]- bremazocine binding to Opioid receptor mu 1(washed)at a concentration of 4.4 nM
[7] = molecular target: Mu-type opioid receptor (Bos taurus) (UniProt P79350); assay: % Recovery of 0.5 nM [3H]- bremazocine binding to Opioid receptor mu 1(unwashed)at a concentration of 4.4 nM
[8] = molecular target: Mu-type opioid receptor (Bos taurus) (UniProt P79350); assay: % Recovery of 0.5 nM [3H]- bremazocine binding to Opioid receptor mu 1(protected)at a concentration of 4.4 nM

Molecule C=C1C[C@H]([C@H]2C[C@@]34C=C[C@]2(OC)[C@@H]2Oc5c(O)ccc6c5[C@@]23CCN(CC2CC2)[C@@H]4C6)OC1=O has a Recovery [1] of 13% and a Recovery [2] of 47%.
For CO[C@]12C=C[C@@]3(CC1[C@@H](C)N=C=S)C1Cc4ccc(O)c5c4C3(CCN1CC1CC1)[C@H]2O5 (stereo partly drawn), the Recovery [3] was 44%, the Recovery [4] was 16% and the Recovery [5] was 28%.
For CO[C@]12C=C[C@@]3(CC1[C@H](C)N=C=S)[C@H]1Cc4ccc(O)c5c4[C@@]3(CCN1CC1CC1)[C@H]2O5 (stereo partly drawn), the Recovery [6] was 52%, the Recovery [7] was 23% and the Recovery [8] was 51%.
